What was measured:
[1] = target: T1, human ROR1 on the surface of human cancer cell lines (human, UniProt Q01973); experiment: flow cytometry on four cell lines at 66 nM, PE-anti-human; signal not split between ROR1 and EGFR
T1 construct: whole, on cells; the cell line is named under assay; also called cell surface ROR1

[2] = target: T2, human EGFR on the surface of human cancer cell lines (human); experiment: as above
T2 construct: whole, on cells; also called cell surface EGFR

- binding result [1]: binds
- binding result [2]: binds
B1: P3A1hFc7C12 bispecific molecule (bispecific antibody)
chain: TRVDQTPRTATKETGESLTINCVLTDTSYGLYSTSWFRKNPGTTDWERMSIGGRYVESVNKGAKSFSLRIKDLTVADSATYYCKAREARHPWLRQWYDGAGTVLTVNGGGGSGGGGSGGGGS[human IgG1 Fc with changes cut from this listing]GGGGSGGGGSGGGGSGGGGSGGGGSAVQLVESGGGSVQAGGSLRLT[about 100 residues cut from this listing]WGQGTQVTVSSG
notes: also called P3A1 hFc (S252C) 7C12
